TrxR1 substrate: substrates of rat thioredoxin reductase 1 | O89049 | purified TrxR1 substrate turnover, NADPH consumption readout | Potency, µM (doses to about 114 µM), inactives show top-dose activity change, negative = substrate turnover | 390,000 tested, 0.01% active | AID 588456; note: potency is the fitted concentration of half-maximal effect; % is set by controls: 0 for no effect and ±100 for the full control effect; nearly all actives have a fitted effect of over 50% in size
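Rat TrxR1, dispensed at 90 nM, was prereduced with 400 uM NADPH (final) for 5 min at ~22 deg C, then incubated with compound 15 min before 400 uM selenite. A first-read NADPH fluorescence drop versus no-compound background flagged substrates.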
miR-21 reporter: miR-21 reporter, rising signal | Potency, µM (highest dose often 38.3 µM), for inactives: at the highest dose reporter change, positive = more light | 340,000 tested, under 10 active | HeLa miR-21 FLuc reporter, luciferase, 48 h; active = well fitted rising curve with a large enough effect; inconclusive = small, poorly fitted or top-dose-only effect; inactive = no such curve, though single readings can be large or run the other way;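 note: % of control where 0% means no effect; miR-21 action dims this reporter so a rising signal means less miR-21 action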
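Compounds were titrated across several concentrations (up to approximately 40 uM) and incubated 48 hours with HeLa miR-21-FLuc reporter cells (miR-21 target sequence downstream of FLuc, endogenous miR-21). Readout was firefly luciferase luminescence after lytic detection reagent.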
Anesthetic bind: candidate novel general anesthetic via apoferritin binding | apoferritin/1-aminoanthracene competitive binding, fluorescence | Potency, µM (doses to about 77.5 µM), without a hit: at the top dose activity change, negative = displacement, most hits filed as inhibitors | 350,000 tested, 0.074% active | AID 485281; note: potency is the fitted concentration of half-maximal effect; % is set by controls: 0 for no effect and ±100 for the full control effect; nearly all actives have a fitted effect of over 20% in size
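Apoferritin-based anesthetic binding model; compound displacement of fluorescent 1-AMA measured as endpoint fluorescence after 10 minutes at room temperature, scaled to free-ligand and complex controls.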
ClpP mod: qHTS Assay for Activators of ClpP | AID 651965, 2013 | 340,000 tested, 1.9% active | ATP-dependent Clp protease proteolytic subunit (Bacillus subtilis (strain 168)), P80244 | Potency, µM (doses to about 57.5 µM), inactives show top-dose activity change, negative = active | purified B. subtilis ClpP, FRET peptide cleavage, 20 min; active = well fitted falling curve with a large enough effect; inconclusive = small, poorly fitted or top-dose-only effect; inactive = no such curve, though single readings can be large or run the other way; note: potency is the fitted concentration of half-maximal effect; the source files actives as falling curves though it sought activators and does not explain the sign; nearly all actives have a fitted effect of over 65% in size
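FRET quenching reversal measured ClpP activation: 10 microg/mL B. subtilis ClpP at pH 8 with the FRET-FV decapeptide, read at 430 nm after 320 nm excitation. The 20-min minus 0-min signal was scaled between DMSO/no-enzyme wells and ADEP (5.8 microM final).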
rTrxR1 inhibitor: inhibitors of rat thioredoxin reductase 1. O89049. recombinant rTrxR1, NADPH fluorescence consumption, selenite substrate. Potency, µM (highest dose often 114 µM), for inactives: at the highest dose activity change, negative = inhibition, hits mostly inhibitors. 390,000 tested, 1% active; note: potency is the fitted concentration of half-maximal effect; % is set by controls: 0 for no effect and ±100 for the full control effect; nearly all actives have a fitted effect of over 65% in size
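Rat TrxR1 (90 nM in the dispensed reagent) was pre-reduced with 400 uM NADPH for 5 min at room temperature, then incubated with compound for 15 min. After 400 uM selenite was added, NADPH fluorescence (Ex 340/Em 450 nm) was followed for 8 min.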
ClpP inh valid: Bacillus subtilis ClpP inhibition, validated hit. 470 tested, 40% active. purified B. subtilis ClpP, FRET-FV substrate cleavage, 20 min. Potency, µM (titrated, usually from 57.5 µM), without a hit: at the highest dose activity change, negative = inhibition, most hits filed as inhibitors. AID 743245. shares compounds with ClpP mod; note: potency is the fitted concentration of half-maximal effect; % is set by controls: 0 for no effect and ±100 for the full control effect; nearly all actives have a fitted effect of over 70% in size
An asterisk follows results filed as active; ? = inconclusive; nt = no result given; [ ] = another dose, or the depositor's remark. Hits are enriched below; roughly 2.5% of the tested compounds scored in any of these assays. Unless noted, calls come from the whole dose curve; as a rule, active = well fitted curve in the direction sought with a large enough effect; inconclusive = small, poorly fitted or top-dose-only effect, or another doubt; inactive = no such curve, though single readings can be large; an effect the other way counts as inactive or inconclusive.

Chains of the proteins cited; added tags and fusions are not shown.
ATP-dependent Clp protease proteolytic subunit (Bacillus subtilis (strain 168)), P80244, UniProt P80244, whole entry, looked up: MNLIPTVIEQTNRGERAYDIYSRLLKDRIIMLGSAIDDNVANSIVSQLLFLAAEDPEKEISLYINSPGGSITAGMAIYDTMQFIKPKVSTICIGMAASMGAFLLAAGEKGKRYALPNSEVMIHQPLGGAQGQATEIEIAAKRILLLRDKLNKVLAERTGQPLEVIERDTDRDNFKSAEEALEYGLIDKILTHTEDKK

structure	rTrxR1 inhibitor	ClpP inh valid	ClpP mod	TrxR1 substrate	Anesthetic bind	miR-21 reporter
Cc1ccc2[nH]c3c(=O)n(CCN4CCNCC4)cnc3c2c1	-24%	22µM*	8.9µM*	9%	-3%	-1%
Cc1cccc2[nH]c3c(=O)n(CCN4CCNCC4)cnc3c12	-4%[57.1 µM]	nt	?	12%[57.1 µM]	-5%	-4%
COc1ccc2c(c1)c1ncn(CCN3CCNCC3)c(=O)c1n2C	49%	19µM*	2.2µM*	229%	140%	-4%
CCCc1ccc(OCC(=O)Nc2sc3c(c2C(=O)OC)CCCCC3)cc1	-18%	nt	-16%	-28%	-5%	-1%
CCOC(=O)c1cccc(NC(=O)Nc2ccc3c(c2)N(C)C(=O)c2ccccc2S3)c1	-11%	nt	-2%	7%	-11%	17%
CCOc1cc(CNC(=O)Cn2ncn3c(cc4cc(F)ccc43)c2=O)cc(OCC)c1OCC	23%	nt	-4%	12%	3%	3%
CCC(C)NC(=O)c1cc2cc3ccc(OC)cc3nc2s1 (stereo not drawn)	1%	14µM*	10µM*	142%	97%	-15%
O=C1CCCc2cc(S(=O)(=O)NCC3CCC(C(=O)Nc4ccccc4F)CC3)ccc2N1 (stereo not drawn)	-2%[57.1 µM]	nt	-4%	-3%[57.1 µM]	-1%	12%
CCOc1ccc(C(=O)Nc2ccc3oc(-c4cccc5ccccc45)nc3c2)cc1	56%	nt	4%	152%	12%	-13%
Cc1cccnc1NC(=O)c1ccc(S(=O)(=O)N2CCCCC2)cc1	-3%	0%	3.5µM*	-8%	nt	nt

In the list so far, these have an aryl methoxy group.
structure	rTrxR1 inhibitor	ClpP inh valid	ClpP mod	TrxR1 substrate	Anesthetic bind	miR-21 reporter
COc1ccc2c(c1)c1ncn(CCN3CCNCC3)c(=O)c1n2C	49%	19µM*	2.2µM*	229%	140%	-4%
CCC(C)NC(=O)c1cc2cc3ccc(OC)cc3nc2s1 (stereo not drawn)	1%	14µM*	10µM*	142%	97%	-15%

(cont.)
structure	rTrxR1 inhibitor	ClpP inh valid	ClpP mod	TrxR1 substrate	Anesthetic bind	miR-21 reporter
COc1ccccc1C1c2c(-c3ccc(Cl)cc3)n[nH]c2C(=O)N1c1ccc(C)cc1 (stereo not drawn)	6%	nt	-9%	-7%	-5%	?
COc1ccc(-c2[nH]c(-c3ccc4c(c3)OCO4)nc2-c2ccccc2)cc1	-23%	24µM*	2.5µM*	60%	6%	26%
COc1cc(-c2nc(-c3ccccc3)c(-c3ccc(F)cc3)[nH]2)cc2c1OCO2	-18%	22µM*	10µM*	44%	-7%	-11%
Cc1cc(Cl)ccc1OCC(=O)N(Cc1ccco1)Cc1ccccc1F	25%	nt	-1%	6%	71%	9%
COc1ccc2c(c1)c1c(c(=O)n(-c3ccccc3)c(=O)n1CC(=O)Nc1ccc(F)cc1)n2C	9%	nt	4%	15%	-3%	-1%
CCN(CC)CCCNC(=O)c1cn(CCOC)c(=O)c2c1c1ccccc1n2C	-5%	22µM*	10µM*	91%	-7%	-4%
CCN(CC)CCCNC(=O)c1cn(C)c(=O)c2c1c1ccccc1n2C	19%	nt	4%	20%	10%	-2%
O=C(NCCCN1CCCC1=O)C1CCN(S(=O)(=O)N2CCOCC2)CC1	-17%	0%	10µM*	-11%	10%	0%
O=C(NCCCN1CCCC1=O)C1CCN(S(=O)(=O)c2ccccc2)CC1	16%	nt	2%	6%	nt	nt
CCc1ccc(-n2nnc(-c3nc(-c4ccc(C)cc4)no3)c2N)cc1	29%	nt	-3%	7%	7%	-12%

Part of the list above in order of count of non-hydrogen atoms, smallest number first:
structure	rTrxR1 inhibitor	ClpP inh valid	ClpP mod	TrxR1 substrate	Anesthetic bind	miR-21 reporter
Cc1cccc2[nH]c3c(=O)n(CCN4CCNCC4)cnc3c12	-4%[57.1 µM]	nt	?	12%[57.1 µM]	-5%	-4%
CCc1ccc(-n2nnc(-c3nc(-c4ccc(C)cc4)no3)c2N)cc1	29%	nt	-3%	7%	7%	-12%
CCN(CC)CCCNC(=O)c1cn(CCOC)c(=O)c2c1c1ccccc1n2C	-5%	22µM*	10µM*	91%	-7%	-4%

Further records follow.
structure	rTrxR1 inhibitor	ClpP inh valid	ClpP mod	TrxR1 substrate	Anesthetic bind	miR-21 reporter
CC(=O)N1CCc2c(sc(NC(=O)C3CCCN3S(=O)(=O)c3cccs3)c2C(N)=O)C1 (stereo not drawn)	-13%	-28%	4µM*	3%	nt	nt
CC1Cc2ccccc2N1c1nc(C2CC2)nc2c1nnn2Cc1ccccc1 (stereo not drawn)	88%[57.1 µM]	27µM*	7.1µM*	41%[57.1 µM]	-3%	-14%
Nc1nc2nc(-c3ccc(OCc4ccccc4)cc3)cc(C(F)(F)F)n2n1	46%	17µM*	7.1µM*	145%	-10%	-1%
CCOC(=O)N1CCC(Nc2nc3ccccc3n3nnnc23)CC1	7%	19µM*	25µM*	80%	-14%	-20%
CCOC(=O)c1ccccc1Nc1nc2ccc(C)cc2n2nnnc12	19%	nt	-1%	3%	-3%	5%
Nc1c(C(=O)Nc2cccc(Cl)c2Cl)sc2nc(-c3cccnc3)ccc12	12%	0%	4µM*	7%[0.457 µM]	3%	-13%
COc1ccc(-c2cc3nc4n(c(=O)c3s2)CCC4)cc1	-36%	1.9µM*	106%	378%	-5%	-16%
COc1ccc(-c2cc3nc4n(c(=O)c3s2)CCCCC4)cc1	9%	nt	nt	87%	4%	-73%
c1cncc(-c2nnc(-c3ccco3)o2)c1	36%[57.1 µM]	24µM*	3.5µM*	210%[57.1 µM]	2%	-18%
Clc1ccc(-c2nnc(-c3ccco3)o2)cc1	36%	nt	11%	93%	-11%	-51%
COCCCn1c(C(=O)NCCN2CCOCC2)cc2c(=O)n3cccc(C)c3nc21	24%	24µM*	3.2µM*	179%	51%	-5%
Cc1cccn2c(=O)c3cc(C(=O)NCCN4CCOCC4)c(=N)n(CCCN4CCOCC4)c3nc12	42%	nt	nt	251%	52%	-1%
CSc1ccc(CCNC(=O)c2ccc3c(c2)c(C)c(C)n3Cc2ccc(F)cc2)cc1	26%[57.1 µM]	nt	?	3%[57.1 µM]	79%	-4%
CSc1cccc(NC(=O)c2ccc3c(c2)c(C)c(C)n3Cc2ccc(F)cc2)c1	35%[57.1 µM]	27µM*	7.1µM*	5%[57.1 µM]	62%	-3%
CCOC(=O)c1ccc(NC2=CC(c3ccc(F)cc3)N(c3ccc(C(=O)OCC)cc3)C2=O)cc1 (stereo not drawn)	21%	nt	-3%	17%	-19%	-2%
CCCOc1ccc(Cn2c(=O)oc3ccc(C)cc32)cc1OC	1%[57.1 µM]	-1%	240%	-16%[57.1 µM]	-7%	-9%
COc1cc(Cn2c(=O)oc3ccc(C)cc32)ccc1OCCC(C)C	21%	nt	-1%	1%	58%	-1%
CCOC(=O)c1[nH]c2ccccc2c1NC(=O)c1cc(OCC)c(OCC)c(OCC)c1	21%	12%	45%	10%	3%	-3%
Cc1cc2nc(-c3cc(NC(=O)c4cc5ccccc5o4)ccc3Cl)oc2cc1C	6%	19µM*	3.2µM*	0%	-6%	-19%
O=C(Nc1ccc(Cl)c(-c2nc3cc(Cl)ccc3o2)c1)c1cc2ccccc2o1	14%	nt	?	8%	2%	-27%
COC(=O)c1cc(Cl)c(NC(=O)c2cc3ccccc3o2)cc1OC	-15%	-26%	37%	7%	-23%	-9%
Cc1ccccc1Nc1cc(C(=O)NC2CCC(C)CC2)c2ccccc2n1 (stereo not drawn)	36%	nt	?	35%	13%	-38%
CCC(C)NC(=O)c1cnn2c(C)c3c(nc12)CCCC3 (stereo not drawn)	-4%	22µM*	10µM*	99%	-11%	-27%

Screens: PubChem, National Center for Advancing Translational Sciences (NCATS)
